Like-named read-outs stand apart in the source and are kept apart here.
Legend:
MOR = MOR (Homo sapiens (Human), UniProt P35372); experiment: Receptor binding, [3H]diprenorphine
mice = experiment: Open field locomotor response; conditions: mouse

Protein sequences, listed by entry. Tags and fused reporters are not part of them.
UniProt P35372, whole entry: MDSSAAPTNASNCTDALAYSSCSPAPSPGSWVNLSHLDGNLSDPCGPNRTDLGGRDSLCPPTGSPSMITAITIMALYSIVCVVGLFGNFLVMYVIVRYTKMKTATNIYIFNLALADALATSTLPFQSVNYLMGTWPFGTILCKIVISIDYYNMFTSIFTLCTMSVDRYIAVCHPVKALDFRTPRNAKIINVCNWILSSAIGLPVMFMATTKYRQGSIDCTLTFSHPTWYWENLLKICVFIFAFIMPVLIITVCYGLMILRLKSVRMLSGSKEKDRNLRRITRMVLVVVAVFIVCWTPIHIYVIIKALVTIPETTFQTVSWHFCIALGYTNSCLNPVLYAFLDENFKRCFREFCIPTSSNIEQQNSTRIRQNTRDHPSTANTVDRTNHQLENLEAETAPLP

CN(C)[C@H](CNC(=O)NCCc1cn(CCOCCOCCOCCN=[N+]=[N-])nn1)Cc1ccc(O)cc1 [DD 165, (S)-1-(2-(1-(2-(2-(2-(2-azidoethoxy)ethoxy)ethoxy)ethyl)-1H-1,2,3-triazol-4-yl)ethyl)-3-(2-(dimethylamino)-3-(4-hydroxyphenyl)propyl)urea]
Ki (MOR; binding affinity Ki [nM] hMOR): 3500 nM

CN1CC[C@]23c4c5ccc(O)c4O[C@H]2[C@@H](O)C=C[C@H]3[C@H]1C5 [Morphine, morphine, reference compound]
open field locomotion (mice): induced mouse hyperlocomotion

CN(C)[C@H](CNC(=O)NCCc1cn(CCOCCOCCN=[N+]=[N-])nn1)Cc1ccc(O)cc1 [DD 161, (S)-1-(2-(1-(2-(2-(2-azidoethoxy)ethoxy)ethyl)-1H-1,2,3-triazol-4-yl)ethyl)-3-(2-(dimethylamino)-3-(4-hydroxyphenyl)propyl)urea]
Ki (MOR): 4700 nM
